From article PMC10641831 (Journal of Medicinal Chemistry, 2023) come the findings set out here.

By UniProt entry, the sequences of proteins in these tests, tags left out.
UniProt P37288, whole entry: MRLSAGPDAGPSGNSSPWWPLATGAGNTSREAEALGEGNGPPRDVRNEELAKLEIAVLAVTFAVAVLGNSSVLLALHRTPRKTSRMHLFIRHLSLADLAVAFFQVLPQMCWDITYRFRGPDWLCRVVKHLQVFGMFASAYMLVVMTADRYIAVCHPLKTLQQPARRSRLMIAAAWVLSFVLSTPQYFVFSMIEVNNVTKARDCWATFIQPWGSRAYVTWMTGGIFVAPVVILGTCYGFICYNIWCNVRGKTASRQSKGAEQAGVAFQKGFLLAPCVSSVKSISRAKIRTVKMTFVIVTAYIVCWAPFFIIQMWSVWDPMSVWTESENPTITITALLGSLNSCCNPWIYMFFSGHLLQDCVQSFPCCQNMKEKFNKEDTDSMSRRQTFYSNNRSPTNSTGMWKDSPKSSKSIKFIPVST

For one experiment, the target named is T1, hV1bR (Homo sapiens, UniProt P47901).
T1 construct: expressed in transfected cells
T1 sequence (P47901 1-424): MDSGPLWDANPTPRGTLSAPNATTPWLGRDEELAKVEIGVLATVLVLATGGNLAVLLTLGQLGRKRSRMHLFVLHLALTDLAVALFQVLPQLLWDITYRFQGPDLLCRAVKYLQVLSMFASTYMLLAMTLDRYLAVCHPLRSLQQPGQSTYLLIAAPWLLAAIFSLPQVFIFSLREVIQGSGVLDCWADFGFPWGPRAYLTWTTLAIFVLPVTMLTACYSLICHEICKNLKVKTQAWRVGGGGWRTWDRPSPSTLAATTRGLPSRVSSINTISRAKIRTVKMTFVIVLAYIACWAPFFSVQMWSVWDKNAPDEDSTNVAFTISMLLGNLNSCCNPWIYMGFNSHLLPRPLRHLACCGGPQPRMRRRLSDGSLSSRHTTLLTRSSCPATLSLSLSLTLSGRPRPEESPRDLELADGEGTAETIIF
Put plainly: IP-One accumulation assay, agonist function, HEK293 cells expressing hV1bR. In kind it is cell-based. Conditions: supplementary CSV; read-out: activity E-isomer V1bR.

The next experiment deals with T2, hV1aR (Homo sapiens, UniProt P37288).
T2 construct: expressed in transfected cells
Put plainly: IP-One accumulation assay, agonist function, HEK293 cells expressing hV1aR. Conditions: supplementary CSV; read-out: activity E-isomer V1aR. In kind it is cell-based.

With `N=C(N)NCCC[C@H](NC(=O)[C@@H]1CCCN1C(=O)[C@@H]1CSSC[C@H](N)C(=O)N[C@@H](Cc2ccc(O)cc2)C(=O)N[C@@H](Cc2ccc(/N=N/c3ccccc3)cc2)C(=O)N[C@@H](CCC(N)=O)C(=O)N[C@@H](CC(N)=O)C(=O)N1)C(=O)NCC(N)=O` [compound 12, [AzbS^3]-VP], the EC50 on hV1bR stood at 107 ± 13 nM; at hV1aR, 722 ± 53 nM.
